{
  "source": "patent EP0448343A2",
  "about": "“Lipopeptide derivatives” (MERCK & CO. INC., priority 1990, dated 1991)",
  "assay": "Solubility in water",
  "type": "physicochemical",
  "data": [
    {"substance": "1-[4-hydroxy-N2-(10,12-dimethyl-1-oxotetradecyl)-ornithine]-4-[3-hydroxy-4′-O-(2-carbamoyl acetic acid-homo-tyrosine]-5-[3-hydroxyglutamine]-6-[3-hydroxyproline]echinocandin B [IV]", "values": [
      {"measurement": "solubility in water", "result": "> 10000", "unit": "µg/mL"}
    ]}
  ]
}
